Type: physicochemical
Experimental: The crystallization or precipitation of divalent or trivalent forms of Imetelstat was investigated using a large excess of inorganic salts of interest (900 equivalents, weight base). 1M salt solutions CaCl2, MgCl2, BaCl2, CuCl2, ZnCl2, AlCl2, FeCl2, and FeCl3 were prepared. Three types of Imetelstat solution: crude Imetelstat solution (ammonium salt), purified Imetelstat (triethylammonium (TEA) salt form), and Imetelstat sodium (Na salt form), were mixed with each salt solution.
The solubilities of the precipitates isolated under the conditions of large excess of salt regent were initially investigated using the following solvents: water, acetonitrile, MeOH, EtOH, IPA (isopropyl alcohol), 0.1M NaOH, 0.1M HCl, 1M NaCl, and NMP.
For salts precipitated in a large excess of salt reagent, calcium, barium, and magnesium salts of Imetelstat were soluble in a 0.1M NaOH and 1M NaCl solution. (see Table 2). Solubility studies of Imetelstat precipitate obtained from a large excess of magnesium salt reagent were conducted in 1M NaCl solutions at different concentrations (2 mg/mL to 6 mg/mL) and under different pH conditions (pH 8, 9, 10, 11, 12) and analyzed by HPLC (see chromatograms of FIG. 1).

Substance: CaCl2
- Solubility in a 0.1M NaOH and 1M NaCl solution: soluble
